# In paper PMC2678945 (The Journal of neuroscience : the official journal of the …, 2008):
# Protein sequences, listed by entry. Tags and fused reporters are not part of them.
# UniProt O75762, whole entry S873V/T874L: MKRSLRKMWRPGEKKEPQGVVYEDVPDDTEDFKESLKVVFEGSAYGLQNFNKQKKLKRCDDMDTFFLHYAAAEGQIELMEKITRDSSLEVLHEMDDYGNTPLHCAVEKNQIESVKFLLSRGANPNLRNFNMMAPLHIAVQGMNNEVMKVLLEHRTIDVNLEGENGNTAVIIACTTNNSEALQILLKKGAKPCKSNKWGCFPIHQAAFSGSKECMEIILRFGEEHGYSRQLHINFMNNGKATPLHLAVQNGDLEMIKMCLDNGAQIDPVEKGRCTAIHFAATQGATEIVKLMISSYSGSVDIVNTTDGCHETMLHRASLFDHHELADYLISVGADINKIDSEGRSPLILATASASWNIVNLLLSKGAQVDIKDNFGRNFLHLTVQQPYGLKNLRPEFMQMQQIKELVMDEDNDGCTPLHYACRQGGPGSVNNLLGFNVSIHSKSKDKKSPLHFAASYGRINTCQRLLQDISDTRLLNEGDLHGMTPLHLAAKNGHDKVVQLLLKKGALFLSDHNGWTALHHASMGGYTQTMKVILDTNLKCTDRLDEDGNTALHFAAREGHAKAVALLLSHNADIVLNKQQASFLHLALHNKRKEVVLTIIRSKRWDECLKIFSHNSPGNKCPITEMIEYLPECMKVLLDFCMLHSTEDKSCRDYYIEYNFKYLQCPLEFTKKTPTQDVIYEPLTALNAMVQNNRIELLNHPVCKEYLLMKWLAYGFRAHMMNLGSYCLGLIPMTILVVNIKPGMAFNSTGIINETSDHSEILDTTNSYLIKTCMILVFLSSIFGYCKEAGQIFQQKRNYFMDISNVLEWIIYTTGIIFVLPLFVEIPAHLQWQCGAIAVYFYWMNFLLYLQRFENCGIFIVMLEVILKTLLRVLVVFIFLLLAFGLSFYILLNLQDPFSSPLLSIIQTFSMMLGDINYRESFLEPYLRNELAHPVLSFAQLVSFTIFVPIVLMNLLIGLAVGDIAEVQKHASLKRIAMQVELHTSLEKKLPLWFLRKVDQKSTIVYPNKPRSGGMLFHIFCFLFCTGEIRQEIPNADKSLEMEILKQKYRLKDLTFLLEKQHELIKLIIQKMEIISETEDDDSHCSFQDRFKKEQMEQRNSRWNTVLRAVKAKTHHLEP
# Biological target: hTRPA1-S873V/T874L (Homo sapiens, UniProt O75762, S873V/T874L)
Structure (SMILES),hTRPA1-S873V/T874L IC50 (Inhibition),EC50 (read-out: hTRPA1-S873V/T874L EC50 (Activation))
"CC(=NO)/C(C)=C\c1ccc(Cl)cc1 [AP18, (Z)-4-(4-chlorophynyl)-3-methylbut-3-en-2-oxime]",No inhibition,–
"CC(C)=CCC/C(C)=C/CC/C(C)=C/CSc1ccccc1C(=O)O [FTS, Farnesyl thiosalicylic acid]",–,11.8 ± 8.3 µM
